# AlphaSeq binding of Ab-14 light chain variants to a spike HR2 peptide

Reference: Engelhart et al. 2022, doi:10.1038/s41597-022-01779-4. File: FLAb, binding data.

Binding partner: SARS-CoV-2 spike HR2 peptide, sequence PDVDLGDISGINAS.

Each scFv is VH, a 15-residue (Gly4Ser)3 linker, VL, as in the parent Ab-14, and differs from it in the CDRs of the light chain only.
VH: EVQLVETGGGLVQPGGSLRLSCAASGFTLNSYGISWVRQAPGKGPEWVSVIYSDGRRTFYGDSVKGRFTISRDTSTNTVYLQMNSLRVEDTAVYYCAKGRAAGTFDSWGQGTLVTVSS
VL: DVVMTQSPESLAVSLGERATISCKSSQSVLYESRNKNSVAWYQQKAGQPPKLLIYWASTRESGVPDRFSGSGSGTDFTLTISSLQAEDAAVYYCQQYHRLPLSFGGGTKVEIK

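The parent was found by panning a naive human phage display library on the peptide. Library AAYL50 holds single substitutions and randomly drawn double and triple substitutions in the CDRs. The scFvs were displayed on barcoded MATa yeast, the peptide on MATalpha yeast. After mating in shaken culture at 30 °C for 16 h, diploids were selected and their barcode pairs sequenced. The ratio of observed to expected reads was calibrated, replicate by replicate, on BCL2-family standards whose Kd was known from biolayer interferometry. The assay was run in three technical replicates.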

The parent's light chain CDRs are KSSQSVLYESRNKNSVA, WASTRES, QQYHRLPLS; each variant's own CDRs replace them letter for letter. Affinities are written as log10 Kd with Kd in nM; a lower number is a better binder. Averages over replicates are reported, and they cover detected replicates only. "ND" marks a missing value. The strain was present, yet no cells mated with the target were sequenced in that replicate, which points to weak or no binding.

CDR-L1,CDR-L2,CDR-L3,"log10 Kd, replicates",mean log10 Kd (nM),signal with controls
KSSQSVLYESRNFNSVA,WASTKES,QQYHRLPLS,2.54 / 3.51 / 2.22,2.76,0 of 9
KSSQSVLYESRNKNSVE,WAYTRES,VQYHRLPLS,ND / ND / 4.59,4.59,1 of 9 (4.70)
KKSQSVLYESRNKNSVA,WASTAEC,QQYHRLPLS,ND / ND / 5.68,5.68,0 of 9
KSSRSVLYESRNKNSVI,VASTRES,QQYHRLPLS,ND / ND / ND,ND,1 of 9 (3.76)
KSSQSVVYEERNKNSVA,WASTRER,QQYHRLPLS,0.97 / 1.06 / 1.19,1.07,1 of 9 (3.53)
KSSQSVLYESRNVNSVA,WDETRES,QQYHRLPLS,4.83 / 5.15 / ND,4.99,1 of 9 (3.74)
KSSQSKLYESRNFNSVV,WASTRES,QQYHRLPLS,ND / 3.10 / ND,3.10,2 of 9 (3.81)
KQSQSVLYESRNKNSVA,WTSTRES,QFYHRLPLS,ND / 2.14 / ND,2.14,0 of 9
KRSQSVLYESRNKNSVA,WASTRES,FHYHRLPLS,3.68 / 3.25 / 3.77,3.56,2 of 9 (4.64)
KSSQSVLYEQRNKNSVA,WGETRES,QQYHRLPLS,1.02 / 1.22 / 1.14,1.13,6 of 9 (3.77)
KSSQSVMYESRNKNSVA,WASTRER,QRYHRLPLS,ND / 3.75 / 4.36,4.05,2 of 9 (3.62)
KSSQSVLYEMRNKNSVA,WVSTRED,QQYHRLPLS,ND / 4.66 / ND,4.66,2 of 9 (2.93)
KSSQPVLYESRNKNSVA,WASTRES,QQYDRRPLS,ND / 3.64 / 5.14,4.39,1 of 9 (4.40)
KSSQSVLYESRNKNSVA,WASTREN,QQYHRLPYS,4.50 / ND / ND,4.50,2 of 9 (2.97)
KSSQSVLYESGNKNSVQ,WASTRES,QQYHPLPLS,ND / ND / ND,ND,0 of 9
KSSQSVLYESRNKNHVA,WASTRES,QQYHRLNLS,ND / ND / ND,ND,1 of 9 (3.73)
KSSQYVLYESRNKNSVA,WASTTES,QQYHRLPES,ND / 3.69 / 3.59,3.64,2 of 9 (3.68)
KSSQSVLYESRNKNSVC,WASTRES,QQYVVLPLS,ND / ND / ND,ND,0 of 9
KSSQSVLYESWNKNSVA,WASTREA,QQYHRLPLS,0.90 / 0.97 / 0.88,0.92,2 of 9 (3.90)
YISQSVLYESRNKNSVA,WASTRES,QNYHRLPLS,0.89 / 0.92 / 1.11,0.97,0 of 9
KSSQSVLFESINKNSVA,WASTRES,VQYHRLPLS,0.28 / 0.72 / 0.57,0.52,1 of 9 (5.07)
KSSQSVLYESRNKNSVA,WASTRPS,QKYQRLPLS,2.49 / ND / ND,2.49,0 of 9
KSFQSVLYDSRNKNSVA,WASTRES,QQYHRLPLS,ND / ND / ND,ND,0 of 9
KSSQSVFYESRNKNSVA,WLWTRES,QQYHRLPLS,ND / ND / ND,ND,0 of 9
KSSQGVLYESRNKNSVA,WDSLRES,QQYHRLPLS,1.43 / 1.51 / 1.67,1.54,5 of 9 (5.08)
KSSQSQLYESRNANSVA,WASHRES,QQYHRLPLS,ND / ND / ND,ND,3 of 9 (3.07)
KSSQSVLYESRPKCSVA,WASYRES,QQYHRLPLS,ND / 3.73 / ND,3.73,1 of 9 (3.28)
KSSQSVLYESRNKNSMA,WAPTRES,QLYHRLPLS,ND / ND / ND,ND,3 of 9 (4.33)
KSSQSVLYESRNKNSVA,WMSTRES,TQMHRLPLS,ND / ND / 4.31,4.31,0 of 9
KSSQSVAYQSRNKNSVA,WASTRES,QQYHRGPLS,2.77 / 2.51 / 3.09,2.79,5 of 9 (3.85)
KSSQSVQYESRNKNSVA,WASTRES,QQYHGVPLS,3.70 / 4.85 / 5.23,4.59,2 of 9 (3.94)
KSSQSVLSESRNKNSVA,WASTRES,QQYHILDLS,3.11 / 2.03 / 2.64,2.59,0 of 9
KSSQSVLYVSRNKNRVA,WASTRES,QQYGRLPLS,ND / 4.51 / ND,4.51,1 of 9 (2.28)

Top 3 of the variants detected in all replicates, tightest first:

| CDR-L1 | CDR-L2 | CDR-L3 | log10 Kd, replicates | mean log10 Kd (nM) | signal with controls |
|---|---|---|---|---|---|
| KSSQSVLFESINKNSVA | WASTRES | VQYHRLPLS | 0.28 / 0.72 / 0.57 | 0.52 | 1 of 9 (5.07) |
| KSSQSVLYESWNKNSVA | WASTREA | QQYHRLPLS | 0.90 / 0.97 / 0.88 | 0.92 | 2 of 9 (3.90) |
| YISQSVLYESRNKNSVA | WASTRES | QNYHRLPLS | 0.89 / 0.92 / 1.11 | 0.97 | 0 of 9 |

Nonspecific signal, from three strains lacking the peptide, appeared in 18% of pairings of library AAYL50, centred on 4.19 (5% of these signals below 2.99); values are not corrected for it. The control count says in how many pairings with the empty strains this scFv gave a signal, with their mean in brackets. For reference, the parent read 0.65 as the reference entry and 1.68 as a member of this library.